Measured values: US11471446B2, “Compounds for treatment of hypoproliferative disorders” (LU LICENSE AB, priority 2015, dated 2022)

System: RPS19-deficient murine erythroid progenitor cells
Assay: Phenotypic assay for rescued cell proliferation of murine RPS19-deficient erythroid progenitor cells
Format: cell-based
Details: Mus musculus, proliferation rescue of RPS19-deficient erythroid progenitor cells
From the text: Correction of reduced proliferative capacity of RPS19-deficient erythroid progenitors was used as readout in a phenotypic screen for novel drug candidates.

For `CN1CCN(C(=O)c2ccc3cc(CCNc4ncnc5ccc(C#N)cc45)ccc3c2)CC1` [DBA-9], the EC50 was 50 nM.
